Reference: patent US20050203135A1, “Antagonists for treatment of CD/11CD18 adhesion receptor mediated disorders” (Genentech, Inc., priority 1998, published 2005)

Sequences of proteins named here, by UniProt entry; tags and fusion partners are left off. A change or cut given only in a name is not applied to a line headed by its entry.
UniProt P05107: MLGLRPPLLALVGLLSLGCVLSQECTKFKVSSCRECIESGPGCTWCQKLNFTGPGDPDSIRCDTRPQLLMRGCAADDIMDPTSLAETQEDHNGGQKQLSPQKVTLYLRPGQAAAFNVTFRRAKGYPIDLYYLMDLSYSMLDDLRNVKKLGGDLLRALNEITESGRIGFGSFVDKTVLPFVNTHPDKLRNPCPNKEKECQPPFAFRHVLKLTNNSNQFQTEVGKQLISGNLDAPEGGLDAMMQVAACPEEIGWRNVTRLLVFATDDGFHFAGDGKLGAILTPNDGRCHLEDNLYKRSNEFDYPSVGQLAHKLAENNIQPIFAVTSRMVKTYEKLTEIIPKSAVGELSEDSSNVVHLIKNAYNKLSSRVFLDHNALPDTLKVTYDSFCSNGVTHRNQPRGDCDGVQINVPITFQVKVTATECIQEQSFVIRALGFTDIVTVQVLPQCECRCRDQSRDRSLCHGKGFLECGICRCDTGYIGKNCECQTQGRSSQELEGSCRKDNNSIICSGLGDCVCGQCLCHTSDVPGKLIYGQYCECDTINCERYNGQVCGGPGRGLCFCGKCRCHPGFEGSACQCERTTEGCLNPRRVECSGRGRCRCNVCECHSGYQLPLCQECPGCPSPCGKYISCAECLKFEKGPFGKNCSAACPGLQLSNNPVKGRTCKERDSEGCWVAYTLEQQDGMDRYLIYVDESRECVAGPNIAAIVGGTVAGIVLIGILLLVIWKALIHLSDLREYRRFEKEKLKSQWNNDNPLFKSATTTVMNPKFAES
UniProt P20701: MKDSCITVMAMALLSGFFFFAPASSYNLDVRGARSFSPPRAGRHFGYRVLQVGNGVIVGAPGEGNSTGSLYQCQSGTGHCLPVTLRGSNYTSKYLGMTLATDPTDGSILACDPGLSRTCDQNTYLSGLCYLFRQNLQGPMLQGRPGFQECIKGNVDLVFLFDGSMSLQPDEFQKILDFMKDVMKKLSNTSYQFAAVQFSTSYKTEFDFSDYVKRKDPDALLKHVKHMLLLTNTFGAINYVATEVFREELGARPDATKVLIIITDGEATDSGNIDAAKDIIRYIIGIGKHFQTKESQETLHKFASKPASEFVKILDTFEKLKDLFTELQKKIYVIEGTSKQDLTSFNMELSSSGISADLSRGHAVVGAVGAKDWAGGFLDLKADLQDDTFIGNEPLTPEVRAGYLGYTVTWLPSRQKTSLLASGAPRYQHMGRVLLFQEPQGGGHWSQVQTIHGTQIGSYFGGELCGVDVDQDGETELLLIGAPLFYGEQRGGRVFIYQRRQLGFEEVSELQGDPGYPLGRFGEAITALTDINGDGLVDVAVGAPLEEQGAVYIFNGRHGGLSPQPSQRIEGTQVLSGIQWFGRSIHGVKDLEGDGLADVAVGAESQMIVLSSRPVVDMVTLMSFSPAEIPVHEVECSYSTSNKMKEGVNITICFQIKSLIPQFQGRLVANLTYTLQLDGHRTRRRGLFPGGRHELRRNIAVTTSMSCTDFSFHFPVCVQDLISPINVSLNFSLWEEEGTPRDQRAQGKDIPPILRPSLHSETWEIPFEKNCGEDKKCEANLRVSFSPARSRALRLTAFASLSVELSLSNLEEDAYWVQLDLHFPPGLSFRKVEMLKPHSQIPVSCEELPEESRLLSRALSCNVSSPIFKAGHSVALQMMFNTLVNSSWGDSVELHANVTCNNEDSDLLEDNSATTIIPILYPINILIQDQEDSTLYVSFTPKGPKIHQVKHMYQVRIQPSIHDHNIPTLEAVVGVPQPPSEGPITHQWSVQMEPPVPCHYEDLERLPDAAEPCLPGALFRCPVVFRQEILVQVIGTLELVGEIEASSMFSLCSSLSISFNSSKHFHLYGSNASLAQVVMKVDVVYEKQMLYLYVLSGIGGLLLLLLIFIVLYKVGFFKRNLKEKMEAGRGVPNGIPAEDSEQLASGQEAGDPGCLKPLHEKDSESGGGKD

Biological target: CD11a/CD18-ICAM-1 interaction (recombinant human LFA-1 / human 5 domain ICAM-Ig) (Homo sapiens, UniProt P05107+P20701)
Test: PLM2 antibody capture LFA-1:ICAM-1 assay (PLM2)
Conditions: read-out: PLM2; PLM2 antibody capture format of LFA/ICAM assay

**Q.** For 3-bromobenzyl bromide, which IC50 is on record?
**A.** Its IC50 is 71 nM.
